Test results as given in patent publication US20080287375A1, “Selective Glycosidase Inhibitors, Methods of Making Inhibitors, and Uses Thereof” (SIMON FRASER UNIVERSITY, priority 2005, published 2008).

Target: human placental β-hexosaminidase
Assay: Inhibition of β-hexosaminidase, substrate MU-GlcNAc (5), Dixon plots

CC1=N[C@@H]2[C@@H](O)[C@H](O)[C@@H](CO)O[C@@H]2S1 [Compound 9a, 2′-methyl-α-D-glucopyrano-[2,1-d]-Δ2′-thiazoline, reference compound]
pKi (read-out: KI, β-hexosaminidase, human lysosomal β-hexosaminidase): 7.15 | pKi (read-out: β-Hexosaminidase KI, Table 2, substrate 5 at 0.64 mM, pH 4.25, Dixon plots): 7.15

pKi: −log10 of the molar value. Where two headings read alike, the source gives them in different places.
